Measured values as given in patent publication US8530648B2, “Diaza-spiro[5.5]undecanes” (Novartis AG, priority 2009, dated 2013).

The chains behind the UniProt entries cited, without tags or fusion partners.
UniProt O43613, whole entry: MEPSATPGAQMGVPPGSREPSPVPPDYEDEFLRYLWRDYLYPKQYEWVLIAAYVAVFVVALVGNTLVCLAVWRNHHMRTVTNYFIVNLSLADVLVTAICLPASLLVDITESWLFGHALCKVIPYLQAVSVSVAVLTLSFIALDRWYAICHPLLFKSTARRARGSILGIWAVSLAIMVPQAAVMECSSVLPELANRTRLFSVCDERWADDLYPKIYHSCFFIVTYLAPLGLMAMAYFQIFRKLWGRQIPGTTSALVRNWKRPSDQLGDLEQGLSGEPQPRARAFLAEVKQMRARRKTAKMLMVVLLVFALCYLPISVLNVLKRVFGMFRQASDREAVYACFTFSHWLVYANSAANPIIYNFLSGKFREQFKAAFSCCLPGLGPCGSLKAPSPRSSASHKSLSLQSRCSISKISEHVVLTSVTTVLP

Assays:
[1] = molecular target: T1, hOx1R (Homo sapiens (Human), UniProt O43613); test: Radioligand binding assay, [3H]-SB649868, hOx1R; conditions: radioligand [3H]-SB649868, competition
Method: For crude cell membrane preparations, cells (CHO, Chinese hamster ovary or HEK, human embryonic kidney) expressing human orexin 1 or human orexin 2 receptors, were washed with HEPES (10 mM, pH 7.5), scraped off the culture plates with the same buffer, and centrifuged at 4° C. for 5 min at 2500×g. The cell pellet was either stored at −80° C. or used directly. Before the experiments, cell membranes were re-suspended in binding assay buffer (10 mM HEPES, 0.5% (w/v) bovine serum albumin, pH 7.5) by homogenisation with a Polytron homogeniser at 50 Hz for 20 s. Cell membranes were also used as made available by commercial providers.
Bound radioactivity was measured, and data were analysed with the program XLFIT or Graphpad Prism. Protein concentration was determined according to the Bradford/BioRad Protein Assay Kit.
In competition experiments, cell homogenates (150 μl) were incubated in assay buffer (10 mM HEPES, pH 7.5, 0.5% (w/v) bovine serum albumin, 5 mM MgCl2, 1 mM CaCl2, and tween 0.05%) for 1 h at room temperature with about 1 nM of the radioligand [^3H]-SB649868, 66 Ci/mmole, 50 μl), and with various concentrations of compounds of the invention (50 μl) in triplicates; non-specific binding was determined in the presence of almorexant (10 μM).

[2] = molecular target: T1, hOx1R; test: Calcium accumulation in cells (FLIPR), hOx1R; assay type: cell-based; conditions: inhibition of orexin A induced calcium accumulation, Cheng and Prusoff correction
Method: Calcium Accumulation in Cells (FLIPR):
Cells expressing human orexin 1 or human orexin 2 receptors, were seeded at 8,000 cells/well in 384 well black-walled clear bottom, poly-D-lysine coated plates. After 24 h, the medium was removed and cells were washed once with phosphate buffered saline and serum-deprived overnight in assay buffer (130 mM NaCl, 5.4 mM KCl, 1.8 mM CaCl2, 0.8 mM MgSO4, 0.9 mM NaH2PO4, 25 mM glucose, 20 mM HEPES, pH 7.4) containing bovine serum albumin (1% w/v).
On the day of the experiment, the cells seeded in black plates were treated with assay buffer containing the Ca^2+ sensitive fluorescent dye Fluo-4-AM (2 μM), and probenecid (0.1 mM). After 1 h plates were washed twice with, and resuspended in, assay buffer containing probenecid (0.1 mM) using a multi plate washer. […] Fluorescence measurements were then continued every 1 S for 120 S followed by every 4 S for 240 S.
The measurements were typically made in two sequences:
Compounds of formula I were tested usually in a concentration range from 10^−9 M to 10^−5 M.
In the second round, performed one hour later (to allow for equilibration), Orexin A was tested either in the absence (calibration curves, Orexin A agonist controls) or in the presence of compounds of formula I to determine antagonism.

Kd [1] [µM] | Ki [2] [µM] | SMILES
4.58 | 1.01 | Cc1noc(-c2cccc(CN3CCCC4(CCN(c5cnc6ccccc6n5)CC4)C3=O)c2)n1 [Example 104, 2-(3-(3-methyl-1,2,4-oxadiazol-5-yl)benzyl)-9-(quinoxalin-2-yl)-2,9-diazaspiro[5.5]undecan-1-one]
 | 4.01 | CN1CCc2c(CN3CCCC4(CCN(c5cnc6ccccc6n5)CC4)C3=O)cccc21 [Example 145, 2-((1-methylindolin-4-yl)methyl)-9-(quinoxalin-2-yl)-2,9-diazaspiro[5.5]undecan-1-one]
